BindingDB's records for US20240009175
Some compounds may have been tested in ways that are not shown here.

Amino acid sequences for entries named in this document (tags omitted).
UniProt Q9NR19, whole entry: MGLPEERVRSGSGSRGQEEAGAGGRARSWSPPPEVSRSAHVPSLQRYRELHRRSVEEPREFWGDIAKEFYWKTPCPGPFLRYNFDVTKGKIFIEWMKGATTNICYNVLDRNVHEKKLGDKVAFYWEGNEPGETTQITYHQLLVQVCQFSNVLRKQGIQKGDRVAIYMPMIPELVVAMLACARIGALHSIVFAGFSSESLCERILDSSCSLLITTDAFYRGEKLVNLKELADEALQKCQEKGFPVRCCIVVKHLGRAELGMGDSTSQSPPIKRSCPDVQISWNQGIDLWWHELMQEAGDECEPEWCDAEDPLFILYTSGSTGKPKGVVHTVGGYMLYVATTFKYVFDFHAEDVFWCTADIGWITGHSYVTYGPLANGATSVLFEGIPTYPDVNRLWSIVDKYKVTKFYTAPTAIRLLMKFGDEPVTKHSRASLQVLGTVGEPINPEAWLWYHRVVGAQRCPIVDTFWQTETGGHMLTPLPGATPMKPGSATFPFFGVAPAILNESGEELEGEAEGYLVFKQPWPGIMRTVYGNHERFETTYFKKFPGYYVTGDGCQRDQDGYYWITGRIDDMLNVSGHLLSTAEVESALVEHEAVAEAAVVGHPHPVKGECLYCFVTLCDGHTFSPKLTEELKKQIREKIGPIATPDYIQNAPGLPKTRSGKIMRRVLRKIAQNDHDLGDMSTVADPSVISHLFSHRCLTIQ

Target: Acetyl-coenzyme A synthetase, cytoplasmic (Homo sapiens, UniProt Q9NR19)

COc1nc2nc(C(O)(c3ccccc3)c3ccccc3)n(CCN)c2cc1-c1nnn[nH]1
IC50: 55 nM
